These results are taken from patent US9790378B2, “Vapor source using solutions of precursors in terpenes” (President and Fellows of Harvard College, priority 2010, dated 2017).

A short description of series [1]: Solubility of metal amidinate precursor in a solvent (terpene or dodecane). The method, then:
[drawing 8] was dissolved in alloocimene.
Examples 1 and 2 were repeated except that dodecane was used as a solvent in place of alloocimene or farnesenes.
[drawing 9] is dissolved in mixed isomers of farnesene.
[drawing 10] is dissolved in mixed isomers of farnesenes.
[drawing 11] is dissolved in mixed isomers of farnesenes.
[drawing 12] is dissolved in alloocimene.
[drawing 13] is dissolved in mixed isomers of farnesene.

Series [2] is described as follows: Thermogravimetric analysis (TGA), evaporation into flowing nitrogen. The note with it: 10 to 20 milligrams, flowing nitrogen gas.

Take “bis(N,N′-di-tert-butylacetamidinato)nickel(II)”: the solubility result is on record as “over 40 weight percent” in series [1] (in alloocimene); “around 0.25 molar” in series [1] (in dodecane (saturated hydrocarbon, comparative)); “over 37 weight percent” in series [1] (in mixed isomers of farnesene). Besides, the “volume concentration of the solution” value in series [1] (in alloocimene, from solution density 0.97 g cm^-3) was “over 1.0 molar”; in series [1] (in mixed isomers of farnesene, from solution density 0.96 g cm^-3), “over 0.9 molar”. Besides, in series [2], the “T1/2, temperature by which one half of the mass is lost” value was 197 °C.
